Values of other authors as cited in patent US20170354706A1, “HYBRID PROTEINACEOUS MOLECULE CAPABLE OF INHIBITING AT LEAST ONE ANTIBIOTIC AND PHARMACEUTICAL COMPOSITION CONTAINING IT” (priority 2014, published 2017).

Conditions: human, in vivo; cited from earlier work

Substance: Augmentin
- Patients with acute diarrhoea induced by antibiotics: 10-25%
